High-throughput results (PubChem BioAssay)
Sampled rows, rich in hits. Any-hit rate of the full collection: about 4.2%.
MC4R barr agon: MC4R agonists recruiting beta-arrestin, primary screen, cell-based, luminescence, agonist arm of biased-ligand search; Melanocortin receptor 4 (Homo sapiens), P32245; U2OS MC4R beta-arrestin complementation; percent of melanotan II response, DMSO zero; activation, % at 8.9 µM; actives 0.98% (n = 360,000); AID 540308, 2011;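 active means activation above a per-plate cutoff, the mean activation of sample wells on that plate plus 3 SD, cut at about 8% in these data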
NALP1 yeast inh: NALP1 inflammasome inhibitors in reconstituted yeast, colorimetric, S. cerevisiae, triplicate retest; actives 0.61% (n = 280,000); inhibition, % at 10 µM; S. cerevisiae NALP1/ASC/caspase-1 growth, X-gal OD620, 72 h; in the data active means inhibition mostly above about 24%, no sharp cut-off; inactive means mostly below about 32%
Yeast UUG start: modulators of yeast start codon fidelity, primary screen, whole organism, S. cerevisiae, single point, plate reader | AID 602363, 2012 | S. cerevisiae UUG-firefly luciferase reporter, luminescence/redox ratio | activity score, % at 18.7 µM | hit rate 0.13% among 350,000;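 active = replicate mean at a twofold rise or more, about +100% in these data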;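 also: firefly luciferase made from a UUG start codon reports start codon fidelity; reporter light over untreated wells divided by growth signal over untreated wells; some hits fall short of that in this replicate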
MC4R antagonist: MC4R antagonists of cAMP signaling, primary screen, cell-based, TR-FRET, antagonist arm of biased-ligand search; Melanocortin receptor 4 (Homo sapiens), P32245; MC4R-expressing cells, MTII-stimulated cAMP, LANCE TR-FRET; inhibition, % at 6.5 µM; actives 0.48% (n = 360,000); AID 540295, 2011;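 active means inhibition above its plate's cutoff, the mean of tested wells on that plate plus 3 SD, cut at about 29% in these data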
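System: U2OS cells stably expressing human melanocortin 4 receptor (MC4R). Reagent: Melanotan II challenge after compound preincubation. Doses: 6.5 µM. Times: 30-min compound, 1-h challenge, 1-h detection, room temperature. Measured by: TR-FRET with Eu-cAMP and labeled anti-cAMP, 671 nm. Replicates: singlicate.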
ALR inh: human ALR oxidase inhibition via reduced H2O2; P55789; purified ALR, DTT oxidation, H2O2 HRP-luminol luminescence; inhibition, % (concentration not given with the values); actives 3.8% (n = 290,000); AID 485317;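 active = mean and each replicate at 75% or more; inconclusive = only one of the two met; inactive = neither met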;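 note: stock transfer was 7.5 nL into about 7.5 µL; 0% = neutral wells and 100% = wells with inactivated enzyme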
HDAC3 inh: HDAC3 deacetylase inhibitors, primary screen, biochemical, fluorescence, cell-free homogeneous. Histone deacetylase 3 (Homo sapiens), O15379. recombinant HDAC3, fluorogenic peptide/trypsin coupled. inhibition, % at 8.3 µM. actives 0.15% (n = 320,000). AID 2718, 2010; in the data active means inhibition above about 26%, passing the limit was not always enough; inconclusive means no clear call, values can overlap the other calls
A number is an active result.

Chains of the proteins cited; added tags and fusions are not shown.
Melanocortin receptor 4 (Homo sapiens), P32245, UniProt P32245, whole entry, looked up: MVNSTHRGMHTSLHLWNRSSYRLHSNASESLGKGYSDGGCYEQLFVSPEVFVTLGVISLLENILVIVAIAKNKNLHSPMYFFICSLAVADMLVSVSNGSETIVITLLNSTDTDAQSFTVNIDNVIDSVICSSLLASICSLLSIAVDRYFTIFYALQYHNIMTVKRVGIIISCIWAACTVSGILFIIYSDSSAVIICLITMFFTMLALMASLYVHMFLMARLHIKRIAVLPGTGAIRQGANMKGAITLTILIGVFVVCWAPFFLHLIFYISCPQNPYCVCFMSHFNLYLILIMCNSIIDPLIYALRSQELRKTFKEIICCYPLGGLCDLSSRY

What do the screens show for `CCCCNC(=O)CC1N=C2c3ccccc3N=C(SCC(=O)Nc3ccc(OC)cc3)N2C1=O` (stereo not given)?
MC4R barr agon: inactive; NALP1 yeast inh: inactive; Yeast UUG start: inactive; MC4R antagonist: inactive; ALR inh: 96; HDAC3 inh: inactive

What do the screens show for `CCCCNC(=O)CC1N=C2c3ccccc3N=C(SCC(=O)Nc3cccc(OC)c3)N2C1=O` (stereo not given)?
MC4R barr agon: inactive; NALP1 yeast inh: inactive; Yeast UUG start: inactive; MC4R antagonist: inactive; ALR inh: 84; HDAC3 inh: inactive

Results for O=C(CSc1nccc2ccccc12)N1CCN(c2ccccn2)CC1 ?
MC4R barr agon: inactive; NALP1 yeast inh: inactive; Yeast UUG start: inactive; MC4R antagonist: inactive; ALR inh: 98; HDAC3 inh: inactive

What do the screens show for `Cc1ccc(S(=O)(=O)Nc2ccc(N=Nc3ccc(O)cc3)cc2)cc1`?
MC4R barr agon: inactive; MC4R antagonist: inactive; ALR inh: 90; HDAC3 inh: inactive

Results for CCCCOc1cccc(C(=O)Nc2ccc(S(=O)(=O)Nc3nnc(CC)s3)cc2)c1 ?
MC4R barr agon: inactive; NALP1 yeast inh: inactive; Yeast UUG start: inactive; MC4R antagonist: inactive; ALR inh: 97; HDAC3 inh: inactive

How did COc1ccc(S(=O)(=O)Nc2nnc(Cc3ccc(OC)c(OC)c3)s2)cc1 do in these assays?
MC4R barr agon: inactive; NALP1 yeast inh: inactive; Yeast UUG start: inactive; MC4R antagonist: inactive; ALR inh: 98; HDAC3 inh: inactive

Results for CCCOc1ccc(C(=O)Nc2ccc(S(=O)(=O)Nc3cc(C)nc(C)n3)cc2)cc1 ?
MC4R barr agon: inactive; NALP1 yeast inh: inactive; Yeast UUG start: inactive; MC4R antagonist: inactive; ALR inh: 96; HDAC3 inh: inactive

What do the screens show for `CCc1nnc(NS(=O)(=O)c2ccc(NC(=O)/C=C/c3ccc(F)cc3)cc2)s1`?
MC4R barr agon: inactive; NALP1 yeast inh: inactive; Yeast UUG start: inactive; MC4R antagonist: inactive; ALR inh: 98; HDAC3 inh: inconclusive

Results for COC(=O)Nc1ccc(S(=O)(=O)Nc2ccc(O)cc2)cc1 ?
MC4R barr agon: inactive; NALP1 yeast inh: inactive; Yeast UUG start: inactive; MC4R antagonist: inactive; ALR inh: 89; HDAC3 inh: inactive

How did COC(=O)Nc1ccc(S(=O)(=O)Nc2ccc(C)cc2)cc1 do in these assays?
NALP1 yeast inh: inactive

What do the screens show for `CCc1nnc(NS(=O)(=O)c2ccc(NC(=O)Nc3ccc(OC)cc3)cc2)s1`?
MC4R barr agon: inactive; NALP1 yeast inh: inactive; Yeast UUG start: inactive; MC4R antagonist: inactive; HDAC3 inh: inactive

What do the screens show for `CCc1nnc(NS(=O)(=O)c2ccc(NC(=O)OC)cc2)s1`?
MC4R barr agon: inactive; NALP1 yeast inh: inactive; Yeast UUG start: inactive; MC4R antagonist: inactive; ALR inh: 98; HDAC3 inh: inactive

Results for CCc1nnc(NS(=O)(=O)c2ccc(NC(=S)NC(=O)c3ccc(F)cc3)cc2)s1 ?
MC4R barr agon: inactive; NALP1 yeast inh: inactive; MC4R antagonist: inactive; ALR inh: inactive; HDAC3 inh: inactive

How did CN(C)C(=O)C[C@@H]1C[C@H]2c3cc(NC(=O)C4CCOCC4)ccc3O[C@H]2[C@H](CO)O1 do in these assays?
Yeast UUG start: inactive

What do the screens show for `C[C@@H]1CN([C@@H](C)CO)C(=O)c2cccc(NC(=O)C3CCOCC3)c2O[C@H]1CN(C)C`?
Yeast UUG start: inactive

What do the screens show for `CO[C@H]1CN(C)C(=O)c2cc(NC(=O)C3CC3)ccc2OC[C@H](C)N(C(C)=O)C[C@@H]1C`?
Yeast UUG start: inactive

Results for Cc1cccc(C)c1NC(=O)CN(C)C(=O)Cn1c(=O)cnc2ccccc21 ?
MC4R barr agon: inactive; NALP1 yeast inh: 30; Yeast UUG start: inactive; MC4R antagonist: inactive; ALR inh: inactive; HDAC3 inh: inactive

How did Cc1ccc(NC(=O)Cn2c(=O)cnc3ccccc32)cc1S(=O)(=O)N(C)C do in these assays?
MC4R barr agon: inactive; NALP1 yeast inh: inactive; MC4R antagonist: inactive; ALR inh: inactive; HDAC3 inh: inactive

What do the screens show for `Cc1cc(C(=O)NN=C2CCCCC2)c2ccccc2n1`?
MC4R barr agon: inactive; NALP1 yeast inh: inactive; MC4R antagonist: inactive; ALR inh: 84; HDAC3 inh: inactive

Results for C[C@H](CO)N1C[C@H](C)[C@H](CN(C)C(=O)Nc2ccc(C(F)(F)F)cc2)Oc2ccc(NC(=O)Cc3cn(C)c4ccccc34)cc2C1=O ?
Yeast UUG start: inactive

How did Cc1[nH]c2ccccc2c1N=Nc1ccccc1F do in these assays?
MC4R barr agon: inactive; NALP1 yeast inh: inactive; MC4R antagonist: inactive; ALR inh: 99; HDAC3 inh: inactive

Results for Cc1[nH]c2ccccc2c1N=Nc1ccc(F)cc1 ?
MC4R barr agon: inactive; NALP1 yeast inh: inactive; MC4R antagonist: inactive; ALR inh: 98; HDAC3 inh: inactive

How did Cc1[nH]c2ccccc2c1N=Nc1cc(C(=O)O)cc(C(=O)O)c1 do in these assays?
MC4R barr agon: inactive; NALP1 yeast inh: inactive; Yeast UUG start: inactive; MC4R antagonist: inactive; ALR inh: inactive; HDAC3 inh: inactive

Results for C[C@@H]1CN([C@@H](C)CO)C(=O)c2cc(C#C[C@@H](C)O)cnc2O[C@H]1CN(C)C(=O)CN1CCOCC1 ?
Yeast UUG start: inactive

Results for Clc1ccc(OCCCN2CCc3ccccc3C2)c(Br)c1 ?
MC4R barr agon: inactive; NALP1 yeast inh: inactive; Yeast UUG start: inactive; MC4R antagonist: inactive; ALR inh: inactive; HDAC3 inh: inactive

How did Clc1ccc(OCCOCCN2CCc3ccccc3C2)c(Cl)c1 do in these assays?
MC4R barr agon: inactive; NALP1 yeast inh: 56; MC4R antagonist: inactive; ALR inh: inactive; HDAC3 inh: inactive

What do the screens show for `Nc1ccc(CCc2nc3ccccc3o2)cc1`?
MC4R barr agon: inactive; NALP1 yeast inh: inactive; Yeast UUG start: inactive; MC4R antagonist: inactive; ALR inh: 91; HDAC3 inh: inactive

Results for NCc1ccc(-c2nc3ccccc3o2)cc1 ?
NALP1 yeast inh: inactive

Results for O=[N+]([O-])c1ccc2[nH]c(=S)sc2c1 ?
MC4R barr agon: inactive; MC4R antagonist: inactive

Results for S=c1[nH]c2ccc(Cl)cc2s1 ?
MC4R barr agon: inactive; NALP1 yeast inh: inactive; MC4R antagonist: inactive; ALR inh: 99; HDAC3 inh: inactive

Results for CCCCCCc1c(O)nc(SCCN2CCOCC2)[nH]c1=O ?
MC4R barr agon: inactive; NALP1 yeast inh: inactive; Yeast UUG start: inactive; MC4R antagonist: inactive; ALR inh: inactive; HDAC3 inh: inactive

Results for CCCCc1c(O)nc(SCC(=O)N2CCOCC2)[nH]c1=O ?
MC4R barr agon: inactive; NALP1 yeast inh: inactive; Yeast UUG start: inactive; MC4R antagonist: inactive; ALR inh: 98; HDAC3 inh: inactive
